Assay results from ChEMBL document CHEMBL5252561, “Evaluation of darunavir-derived HIV-1 protease inhibitors incorporating P2' amide-derivatives: Synthesis, biological evaluation and structural studies” (Bioorg Med Chem Lett, 2023).

Biological target: Human immunodeficiency virus type 1 protease (Human immunodeficiency virus 1) (UniProt Q72874)
Test: Potency index, ratio of darunavir Ki to test compound Ki for inhibition of HIV-1 protease using Abz-NF-6 as substrate assessed as inhibition constant measured every 2 mins for 20 mins by fluorescence based […] analysis

Compound: CC(=O)Nc1ccc(S(=O)(=O)N(CC(C)C)C[C@@H](O)[C@H](Cc2ccccc2)NC(=O)O[C@H]2CO[C@H]3OCC[C@H]32)cc1
- Ratio Ki: 20
